## Antibody variant affinities, Ab-14 light chain, assay B

All variants were tested on one target, the spike HR2 peptide PDVDLGDISGINAS (SARS-CoV-2).

The variants keep the heavy chain, the linker and the frameworks of Ab-14 (scFv order VH, a 15-residue (Gly4Ser)3 linker, VL).
VH: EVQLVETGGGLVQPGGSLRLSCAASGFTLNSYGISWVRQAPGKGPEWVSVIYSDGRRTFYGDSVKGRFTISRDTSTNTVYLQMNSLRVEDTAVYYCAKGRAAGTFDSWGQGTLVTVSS
VL: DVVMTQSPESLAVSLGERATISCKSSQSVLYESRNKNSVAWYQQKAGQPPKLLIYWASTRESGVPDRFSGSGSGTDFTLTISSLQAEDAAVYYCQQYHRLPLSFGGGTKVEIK

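These sequences belong to a second round, designed from the earlier measurements on random variants of the parent. Group labels follow the data file (Ctrl: baseline library sampled from a position-specific scoring matrix, with some repeated check sequences; Rand: our label for a block that the file lists under HC and that is probably the random mutants of the ten best first-round binders; En: ensemble of fine-tuned language models; GP: Gaussian process model; HC: hill climbing; Gen: genetic algorithm; Gibbs: Gibbs sampling; a sequence that several methods proposed may carry one label only). Affinity was read by AlphaSeq, a pooled yeast mating assay with surface-displayed partners. After mating in shaken culture at 30 °C for 16 h, diploids were selected and their barcode pairs sequenced. A regression on co-assayed BCL2-family reference pairs converts the normalised counts of each replicate to an apparent Kd. There are six technical replicates.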

Each variant is given by its three light chain CDRs, as the data file delimits them; those of the parent are KSSQSVLYESRNKNSVA, WASTRES, QQYHRLPLS. This list holds designs with more than six substitutions. The Kd shown is the geometric mean over detected replicates; a lower Kd is a better binder. An entry "nd" has no value in the source: the pair was not observed among the diploids in any replicate. This suggests poor binding but is not conclusive.

Variant KLSVSWLFESIEHNSVA / ERSTREQ / QDYNRLPLS [En_HC] gave 5.8 nM (6 of 6 replicates). Variant KLEQSGGYEQRNSNSVA / EASTRED / QQYHRLPLS [GP_Gibbs] showed 1.1 nM (6 of 6 replicates). For IISQSFLGEYHNKNSVA / QTSERGQ / QQYDRLPLS [En_HC], the assay gave 330 pM (6 of 6 replicates). With KISQQVLYESSLKNSVA / MAGTRES / QQYHRLPPS [Ctrl] the result was nd (0 of 6 replicates). Variant IVSQLFLWGMHAKNSIA / EAELRLN / QQYDRLPLI [En_Gen] gave 17 nM (6 of 6 replicates). For TISQMSQLFSQTINNVA / EVSTRLN / QQYDRLPLA [En_Gen], the assay gave 11 nM (6 of 6 replicates). For KVSNQADYEDRMKNSVA / DASTRES / QQYHRLPLS [GP_Gibbs], the assay gave 2.1 nM (6 of 6 replicates).

With IMSEGQEEDAARLNNIA / DHYTRAT / QQYARLPLH [En_Gibbs] the result was 59 nM (5 of 6 replicates). Variant KLLQEVTGHSRNRNSVA / HNSTREE / QQYDRLPLI [En_HC] gave 620 nM (5 of 6 replicates). For KWMQSDDQESRNHNSVA / HASTRCQ / QQYHRLPLS [GP_Gibbs], the assay gave 2.9 nM (6 of 6 replicates). Variant KLNDTFQVYERNNGSVA / DAIISEA / QQYARLPLI [En_Gibbs] gave 5.8 nM (6 of 6 replicates). For MVTQMAMSGMTNKRSVA / NAETREH / QQYHRLPLM [En_Gen], the assay gave 2.1 nM (6 of 6 replicates). With KISQMVKVGITHNNSIA / EETTRAK / QQYHRLPLA [En_Gen] the result was 84 nM (6 of 6 replicates). Variant SLSMSMAFLSRNKNSVA / ENSTREE / QQYHRLPLL [En_HC] showed 81 nM (6 of 6 replicates).

For KLMQGDEMESRNKNSVA / NASKREE / QQYHRLPLS [GP_Gibbs], the assay gave 610 pM (6 of 6 replicates). For KLCQSVLKESRNMNSVA / WHSERTS / EQYMRLPLS [Ctrl], the assay gave nd (0 of 6 replicates). With KLSMVHGHLSMAKNNVA / EMVTREK / QQYNRLPLS [En_Gen] the result was 3.3 nM (6 of 6 replicates). With KLGAVTEYEMRNKNSVA / QMTTRES / QQYHRLPLS [En_HC] the result was 650 pM (6 of 6 replicates). For KLLDWEYGTWAMNSSIA / DAALESD / QQYDRLPLT [En_Gibbs], the assay gave 940 nM (1 of 6 replicates). With KMPQSWLYDSQNSNSVA / HASQRMS / QQYHRLPLS [GP_Gibbs] the result was 860 pM (6 of 6 replicates). With TISQMTSLFSQSINNVA / EVSMREP / QQYDRLPLA [En_Gen] the result was 8.4 nM (6 of 6 replicates).

With HLALRLSYGNMLNKAVA / EVQARVY / QQYARLPLL [En_Gibbs] the result was nd (0 of 6 replicates). Variant KLSMTHGMESINRNSVA / ELVTRMS / QQYNRLPLS [En_Gen] gave 4.6 nM (6 of 6 replicates). For NVDISENVGYNHKAAVA / GHDERVG / QQYYRLPLA [En_Gibbs], the assay gave 1.1 nM (6 of 6 replicates). For KSEQSSLWASRNLNSVA / HASRRES / QQYHRLPLS [Ctrl], the assay gave 19 nM (6 of 6 replicates). Variant MISQVYNMGSFAINSVA / QASQRNA / QQYDRLPLM [En_Gen] gave 11 nM (6 of 6 replicates). Variant KFQQSVGYQTRNPNSVA / EASQRES / QQYHRLPLS [GP_Gibbs] showed 760 pM (6 of 6 replicates). With HSEPSVLYESRNKWSVA / NASYRES / VQYHRLPLS [Rand] the result was nd (0 of 6 replicates).

For FLHGQLEAGQKNWSAIA / ENSIRVN / QQYNHLPLL [En_Gibbs], the assay gave 47 nM (5 of 6 replicates). Variant HITMGMYVSGRYHSSIA / QAEERAK / QQYDRLPLI [En_Gen] gave 13 nM (6 of 6 replicates). With KMSQEVWLESRNVNSVA / MASCRCD / QQYHRLPLS [GP_Gibbs] the result was 60 nM (6 of 6 replicates). For KIRQSTGYESRNKDSIA / DNSTRGR / QQYHRLPLS [En_HC], the assay gave 84 nM (6 of 6 replicates). For KLHAYTLGEKSANSSIA / EKSYRAI / QQYGRLPLC [En_Gibbs], the assay gave 46 nM (6 of 6 replicates). Variant MMSQVTGQGTRHRNNVA / QTSMREP / QQYDRLPLI [En_Gen] gave 10 nM (6 of 6 replicates). For HLLQTVMYGQTRKNSVA / HAVTREN / QQYHRLPLI [En_HC], the assay gave 78 nM (3 of 6 replicates).

With DLTGQFNGASQQQHSVA / HGVEKID / QQYVRLPLA [En_Gibbs] the result was 570 pM (6 of 6 replicates). Variant KISSMVRVGATHSNSIA / EEAKRAD / QQYHRLPLA [En_Gen] gave 1.4 nM (6 of 6 replicates). Variant ILSQSVLMGMHLKNSVA / QASTRFN / QQYHRLPLM [En_HC] showed 49 nM (5 of 6 replicates). Variant KSSGSVEMLSRNVNSVA / EATTRES / QQYHRLPLS [GP_Gibbs] showed 1.1 nM (6 of 6 replicates). With KLYMITGYESRNADSIA / DNSTRGR / QQYHRLPLS [En_HC] the result was 38 nM (6 of 6 replicates). With HISQQVGMTSRNKNSVA / ENSTRED / QQYDRLPLS [En_HC] the result was 600 nM (3 of 6 replicates). Variant SMYPFDVAIGKGTQNVA / HVSVRAL / QQYDRLPLV [En_Gibbs] showed 11 nM (6 of 6 replicates).

Variant KLSPSWWYESRNKANVA / HASTRES / QQYHRLPLH [GP_Gibbs] gave 11 nM (6 of 6 replicates). For KLQQSMEYESRWHNSVA / HASVRCD / QQYHRLPLS [GP_Gibbs], the assay gave 4.0 nM (6 of 6 replicates). For KLYFNVGTMAHNKQSIA / DMERRED / QQYHRLPLS [En_HC], the assay gave 850 pM (6 of 6 replicates). Variant MLDNCQDEYYQKNNNVA / EMNIRCY / QQYGRLPLM [En_Gibbs] showed nd (0 of 6 replicates). For KVWPSELGLERNKNSVA / QASTRES / QQYHRLPLS [GP_Gibbs], the assay gave 420 pM (6 of 6 replicates). For MIYGTQRELGLAANSIA / DNVTRYD / QQYERLPLS [En_Gen], the assay gave 50 nM (1 of 6 replicates). Variant KVSPEWWYESRNKASVA / HASTRES / QQYHRLPLS [GP_Gibbs] gave 4.8 nM (6 of 6 replicates).

For HIDQYTSYDNGENRAIA / DVTIKDY / QQYARLPLL [En_Gibbs], the assay gave 7.8 nM (6 of 6 replicates).

Top 4 of the variants detected in all replicates, tightest first:

| CDR-L1 | CDR-L2 | CDR-L3 | group | Kd (apparent) | detected |
|---|---|---|---|---|---|
| IISQSFLGEYHNKNSVA | QTSERGQ | QQYDRLPLS | En_HC | 330 pM | 6/6 |
| KVWPSELGLERNKNSVA | QASTRES | QQYHRLPLS | GP_Gibbs | 420 pM | 6/6 |
| DLTGQFNGASQQQHSVA | HGVEKID | QQYVRLPLA | En_Gibbs | 570 pM | 6/6 |
| KLMQGDEMESRNKNSVA | NASKREE | QQYHRLPLS | GP_Gibbs | 610 pM | 6/6 |

In the paper, a design with two or fewer of six values counts as a poor binder. Values of this round are not directly comparable with the first-round values of the same sequences. As a blank, each scFv also met three strains without target: over all light chain designs, 4% of these pairings were detected, typically at 430 nM and seldom below 38 nM.

Values reported by Li et al. 2023, doi:10.1038/s41467-023-39022-2 (FLAb copy).